Test results reported in PMC5748754, “Elucidating the Skin Delivery of Aglycone and Glycoside Flavonoids: How the Structures Affect Cutaneous Absorption” (Nutrients, 2017).

Assay: Partition coefficient (log P), n-octanol/water
Type: physicochemical
Details: 37 °C
Method: Flavonoids in methanol (0.5 mg/mL) were pipetted into a tube at a volume of 1 mL. Methanol was then evaporated under vacuum. In the amount of 1 mL of each, n-Octanol and water were incorporated into the tube. After being shaken for 24 h at 37 °C, the tube was centrifugated at 10,000× g for 10 min. The flavonoid content in both phases was analyzed by HPLC. The log P was calculated as log (flavonoid content in n-octanol/flavonoid content in water).

In the case of `C[C@@H]1O[C@@H](OC[C@H]2O[C@@H](Oc3c(-c4ccc(O)c(O)c4)oc4cc(O)cc(O)c4c3=O)[C@H](O)[C@@H](O)[C@@H]2O)[C@H](O)[C@H](O)[C@H]1O` [Rutin], the logP at 24 h is reported as 0.76 ± 0.22.
